Data as given in patent publication US8518869B2, “Pharmaceutical combined preparation containing a therapeutic protein” (Austria Wirtschaftsservice Gesellschaft m.b.H., priority 2004, dated 2013).

Key:
[1] = test system: mean arterial pressure (MAP); experiment: mean arterial pressure in the anaesthetized rabbit model; assay type: in vivo; conditions: bolus infusion of 0.1 μmol/kg, with and without continuous infusion of reduced glutathione (2.2 μmol/kg/min), FIG. 1b
Description: For the purpose of comparison, the effect of a nitrosated serum albumin preparation which was applied without reduced glutathione is shown. The rabbit was anaesthetized, whereby the anaesthesia was initiated with […] (5 mg/kg; bolus) and was maintained with a continuous infusion of […]) and 5 mg of xylasine (5 mg/kg/h), dissolved in physiological saline (5 mL/h), via the vena auricularis. After tracheotomy and intubation, the rabbits were attached to the respirator (Ventilator Harvard Apparatus-[…]) (tidal volume=0.0062×body weight (kg)^1.01, respiration rate=53.5×body weight (kg)^0.26). The mean arterial pressure (MAP) was measured in the arteria femoralis by means of a pressure transducer (amplifier unit-TAM-A and Isotec pressure transducer; Hugo Sachs Elektronik). The results are illustrated in FIGS. 1a-f.

[2] = in vitro NO-release measured with a porphyrinic microsensor; conditions: S—NO—HSA 30 μmol/L with reduced glutathione; n=6; FIG. 2a
Description: The NO-concentration was measured in vitro.

[3] = test system: collagen-induced platelet aggregation; experiment: collagen-induced platelet aggregation in human plasma rich in thrombocytes (aggregometer, method by Born); assay type: cell-based
Description: The platelet aggregation was performed with human plasma rich in thrombocytes (TRP) in a Dual Kanal Chronolog Aggregometer basically according to the method by Born (1969). At the onset of each experiment, the exact dose of collagen was determined for the aggregation induced by collagen (˜1 μg collagen/mL TRP) (95-100% inhibition of the collagen-induced aggregation by 300 μmol/L of acetylsalicylic acid). […] After another minute, aggregation was induced with collagen. Control experiments with collagen alone were carried out after every second to third measurement. The results are illustrated as % aggregation relative to the aggregation induced by collagen (100%) (mean value±standard error). The final concentrations in the aggregation vessel are indicated in the images. In experiments with different thiol- and non-thiol-containing substances (N-acetyl-L-cysteine, ascorbic acid, DL-homocysteine, taurine, L-cysteine), pre-incubation was effected primarily with those substances, in analogy to the trials using reduced glutathione.

[4] = From the text: It is understood that often arrangements must be made also for the storage of the preparation according to the invention so that said preparation will remain stable over an extended period of time. […] Hereby, it is possible to store the low-molecular thiol compound and the nitrosated protein of the preparation according to the invention both in combined and in separate form.

Substance | mean arterial pressure [1] | NO-release, effect of added reduced glutathione [2] | inhibition of the collagen-induced aggregation ([3]; 2-4 μmol/L, without reduced glutathione) [%] | inhibition of the collagen-induced platelet aggregation, effect of added reduced glutathione ([3]; S—NO—HSA 2-4 μmol/L with reduced glutathione, n=6, FIG. 3a) | pH-value at which stability in solution is greatest [4]
S-nitroso human serum albumin [S—NO—HSA] | decrease in mean arterial pressure | concentration-dependent potentiation | 20 | dose-dependent potentiation | –
albumin: protein derived from plasma or blood, non-nitrosated protein component | – | – | – | – | 6 and 7
